Laboratory results: patent US5773414A, “Endothelin antagonists” (Warner-Lambert Company, priority 1997, dated 1998)

Target: T1, ETB (Rattus norvegicus, UniProt P21451)
T1 construct: thaw one aliquot of frozen rat cerebellar membranes; from tissue; host or cells: rat cerebellar membranes
T1 sequence (P21451 27-442): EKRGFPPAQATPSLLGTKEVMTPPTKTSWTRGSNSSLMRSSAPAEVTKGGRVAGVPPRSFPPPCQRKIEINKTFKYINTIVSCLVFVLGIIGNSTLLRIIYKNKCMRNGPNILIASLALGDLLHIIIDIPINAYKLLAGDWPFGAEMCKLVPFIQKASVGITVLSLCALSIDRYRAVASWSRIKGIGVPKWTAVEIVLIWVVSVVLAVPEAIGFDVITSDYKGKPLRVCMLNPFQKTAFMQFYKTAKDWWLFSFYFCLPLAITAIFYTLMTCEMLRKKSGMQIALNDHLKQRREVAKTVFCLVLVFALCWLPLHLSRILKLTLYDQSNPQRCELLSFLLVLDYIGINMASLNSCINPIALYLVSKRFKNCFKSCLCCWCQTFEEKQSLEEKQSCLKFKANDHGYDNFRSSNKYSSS
Assay: Endothelin Receptor Binding Assay-B (ETB), [125I]-ET-1 binding in rat cerebellar membranes
Conditions: Table IIa, read-out: Binding Assay IC50 at Receptor Subtypes ETB
Description: The tissue is made up of 20 mM tris(hydroxymethyl)aminomethane hydrochloride (Trizma) buffer, 2 mM ethylenediaminetetraacetate, 100 μM phenylmethylsulfonyl fluoride.
First, thaw one aliquot of frozen rat cerebellar membranes (2 mg protein in 0.5 mL). Next, add 0.5 mL membrane aliquot to 4.5 mL cold tissue buffer, polytron at 7,500 revolutions per minute for 10 seconds. Finally, dilute tissue suspension 1/100 (0.1 mL suspension+9.9 mL tissue buffer), polytron again, and place ice.
Mix in 150 μL of tissue to each tube, vortex briefly, then tap to force all liquids to bottom (total assay volume=250 μL). Then place the tubes in a 37° C. water bath for 2 hours.
Add 2.5 mL cold water buffer (50 mM Trizma buffer) to each tube, filter, and then wash tube with additional 2.5 mL wash buffer and add to filter. Finally, wash filters with an additional 2.5 mL of cold wash buffer.
Count filters for radioactivity in gamma counter.

Q: With `CC[C@H](C)[C@H](NC(=O)[C@H](CC(=O)O)NC(=O)[C@H](CC(C)C)NC(=O)[C@@H](Cc1ccc2ccccc2c1)NC(C)=O)C(=O)N[C@H](C(=O)N[C@@H](Cc1c[nH]c2ccccc12)C(=O)O)[C@@H](C)CC` [Example 5, Ac--D-2-Nal--Leu--Asp--Ile--Ile--Trp] as the compound, how does the IC50 read?
A: The IC50 was 4 µM.
